Key:
[1] = test system: Adenosine receptor A2a (Bos taurus); assay: Displacement of [3H]-CGS- 21680 from adenosine A2a receptor in bovine striatal membrane at 10 uM.; conditions: Striatum
[2] = test system: Adenosine receptor A3 (Bos taurus); assay: Displacement of [125 I]AB-MECA from adenosine A3 receptors in bovine cortical membranes at 1 uM
[3] = molecular target: Adenosine receptor A1 (Bos taurus) (UniProt P28190)
[4] = test system: Adenosine receptor A3 (Bos taurus); conditions: 1 uM
[5] = molecular target: Adenosine receptor A1 (Bos taurus) (UniProt P28190); assay: GTP shift for Adenosine A1 receptor; assay type: functional
Method in brief: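 A1 binding in bovine cortical membranes with [3H]DPCPX as radioligand. Run with 1 mM GTP and without GTP, and the GTP shift was taken from comparing the two conditions. Compounds in DMSO, final ≤2%.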

Protein sequences, listed by entry. Tags and fused reporters are not part of them.
UniProt P28190, whole entry: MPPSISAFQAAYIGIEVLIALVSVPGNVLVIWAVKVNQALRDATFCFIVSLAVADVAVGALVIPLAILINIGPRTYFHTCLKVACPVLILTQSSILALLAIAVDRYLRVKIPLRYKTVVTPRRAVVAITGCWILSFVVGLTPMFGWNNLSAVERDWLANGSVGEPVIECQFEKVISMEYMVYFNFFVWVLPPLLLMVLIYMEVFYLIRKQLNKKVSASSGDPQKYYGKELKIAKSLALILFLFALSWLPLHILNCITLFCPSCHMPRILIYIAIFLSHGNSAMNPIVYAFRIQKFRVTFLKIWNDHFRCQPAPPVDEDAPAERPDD

| Compound | inhibition [1] [%] | inhibition [2] [%] | GTPshift [3] | inhibition [4] [%] | GTP shift [5] |
| --- | --- | --- | --- | --- | --- |
| O=c1c(-c2ccccc2)nnc2n(-c3ccccc3)c3ccccc3n12 | 18 | 2 | 1 | – | – |
| Cn1c2ccccc2n2c(=O)c(-c3ccc(O)c(O)c3)nnc12 | 32 | – | – | – | – |
| O=c1c(-c2ccco2)nnc2n(-c3ccccc3)c3ccccc3n12 | 56 | – | – | – | – |
| O=c1c(-c2ccccc2)nnc2n(Cc3ccccc3)c3ccccc3n12 | 62 | – | – | 13 | 0.8 |

From ChEMBL document CHEMBL1134334, “3-Aryl[1,2,4]triazino[4,3-a]benzimidazol-4(10H)-ones: a new class of selective A1 adenosine receptor antagonists” (J Med Chem, 2001)
